# Molecular target: Apoptosis regulator Bcl-2 (Homo sapiens, UniProt P10415)
# Chains of the proteins cited; added tags and fusions are not shown.
# UniProt P10415, whole entry: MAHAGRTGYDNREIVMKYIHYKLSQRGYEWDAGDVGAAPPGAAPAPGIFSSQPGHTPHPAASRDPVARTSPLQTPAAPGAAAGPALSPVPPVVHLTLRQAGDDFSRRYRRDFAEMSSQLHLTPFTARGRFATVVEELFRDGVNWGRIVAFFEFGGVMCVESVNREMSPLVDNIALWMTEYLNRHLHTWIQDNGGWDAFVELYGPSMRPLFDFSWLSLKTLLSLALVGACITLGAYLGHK
structure (smiles),measurement,value
CC1(C)CCC(c2ccc(Cl)cc2)=C(CN2CCN(c3ccc(C(=O)NS(=O)(=O)c4ccc(N[C@H](CCN5CCOCC5)CSc5ccccc5)c(S(=O)(=O)C(F)(F)F)c4)cc3)CC2)C1 [NAVITOCLAX],Ki,< 500 pM

# Source: ChEMBL document CHEMBL4665682, “Fragment Linking Strategies for Structure-Based Drug Design” (J Med Chem, 2020)
